Data: patent publication US20110165611A1, “DUAL MODALITY DETECTION OF APOPTOSIS” (priority 2008, published 2011)

Legend:
apoptotic liver = assay: Gamma imaging in murine liver apoptosis model (anti-Fas); assay type: in vivo; conditions: mouse, i.v., radioactive species in bladder
Description: We used a murine liver apoptosis model to evaluate whether chelate 4 could be used to image apoptosis in vivo. F. G. Blankenberg, J. F. Tait, R. E. Davis, L. Naumovski, K. Ohtsuki, S. Kopiwoda, M. J. Abrams, M. Darkes, R. C. Robbins, H. T. Maecker, H. W. Strauss, Proc. Natl. Acad. Sciences USA 1998, 95, 6349-6354; F. G. Blankenberg, P. D. Katsikis, J. F. Tait, R. E. Davis, L. Naumovski, K. Ohtsuki, S. Kopiwoda, M. J. Abrams, H. W. Strauss, J. Nucl. Med. 1999, 40, 184-191. Male Balb/c mice (10-12 weeks old, weight 20-25 g) were injected intravenously with an anti-Fas monoclonal antibody (10 μg/mouse) to induce apoptosis in the liver. Two hours later, ^99mTc-chelate 4 [300 μCi (11.1 MBq), 20 peptide in 0.2 ml] was injected intravenously. Radionuclide imaging was acquired 120 min after the injection of 4.
Gamma Imaging and Biodistribution For γ-imaging study, two male Balb/c mice (10-12 weeks old, weight 20-25 g) (Charles River, Wilmington, Mass.) were injected intravenously with a purified anti-Fas monoclonal antibody (10 μg/mouse) (Pharmingen, San Diego, Calif.). […] The organs of interest were excised and weighed, and radioactivity was counted in a gamma counter. The stomach and intestines were emptied of food contents prior to radioactivity measurements. The percentage of injected dose per gram (% ID/g) was calculated by dividing the % ID/organ by the weight of the tissue.

liver = assay: Radio-HPLC analysis of liver extracts from mice injected 99mTc-chelate 4; assay type: in vivo, mouse; conditions: 2 h after i.v. injection
Method: Two hours after intravenous injection of 4 (1 mCi, 80 μg, 0.2 mL) into a mouse treated with […] and a mouse treated with PBS 2 h prior to the injection of the radiotracer, mice were killed and livers were removed and ground at 4° C. using a Dounce homogenizer (Polytron, […], Switzerland) in 5 mL of acetonitrile/methanol (3:1, v/v). After sequential high-speed centrifugation (100,000 g for 20 min) to remove cellular debris and insoluble proteins, the supernatants were concentrated and injected into the radio-HPLC system (condition: solvent A, 0.01 M NH4OAc in water; solvent B, acetonitrile; gradient: 0-80% B in A over 40 min, flow rate 1.0 mL/min, C18 4.6×250 mm, 5-μm column).

Ac-DEVD-R110-D-SAAC-^99mTc(CO)3 [^99mTc-chelate 4]
Route of clearance (apoptotic liver): cleared through the renal route | Ratio of area integrals of peaks R110-D-SAAC-99mTc(CO)3 and 4 (liver; PBS-treated liver): 0.20 | Ratio of area integrals of peaks R110-D-SAAC-99mTc(CO)3 and 4 (liver; anti-Fas-treated liver): 1.48
